We go through one molecule from patent publication US20190367620A1.

Amino acid sequences for entries named in this document (tags omitted). Residues count along the entry.
UniProt P11362, 22-376: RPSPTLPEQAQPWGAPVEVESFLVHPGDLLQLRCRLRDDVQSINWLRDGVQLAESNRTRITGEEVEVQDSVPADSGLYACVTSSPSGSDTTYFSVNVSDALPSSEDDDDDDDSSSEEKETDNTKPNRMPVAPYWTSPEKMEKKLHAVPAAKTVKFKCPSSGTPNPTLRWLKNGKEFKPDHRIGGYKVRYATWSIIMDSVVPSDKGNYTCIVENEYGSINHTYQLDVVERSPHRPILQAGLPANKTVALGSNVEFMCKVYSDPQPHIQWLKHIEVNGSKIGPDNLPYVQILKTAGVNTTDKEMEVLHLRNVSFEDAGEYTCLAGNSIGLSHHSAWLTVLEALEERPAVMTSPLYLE

By Kd is commonly meant the equilibrium constant for the complex coming apart. High values mean weaker binding, low ones tighter binding.

The assay concerns the target huFGFR1a-IIIc (human) (UniProt P11362). Briefly: SPR (Biacore 4000), antibody captured, His-tagged FGFR1 injected; no unit in the table, nM inferred from paragraph 90.

B1: mAb #A05 (antibody, V domains shown)
VH: QMQLVQSGAEVKKPGASVKVSCKASGHTFTGYYMHWVRQAPGQGLEWMGWINPNSGGTNYAQKFQGRVTMTRDTSISTAYMELSRLRSDDTAVYYCARDLFWSLSSGWSIHPYYFDYWGQGTLVTVSS
VL: QSALTQPASVSGSPGQSITISCTGTSSDVGSYNLVSWYQQHPGKAPKLMIYGGSKRPSGVPDRFSGSKSDTSASLTISGLQAEDEADYYCCSYTYNGDVFGTGTKVTVL
As to B1, the Kd came to 0.2 nM.
